The values below come from patent US8927500B2, “Peptidomimetic macrocycles” (Aileron Therapeutics, Inc., priority 2012, dated 2015).

Series [1] deals with SJSA-1 cells. Nature of the series: Cell lysis by peptidomimetic macrocycles (LDH release). The class given is cell-based. The note with it: 1 h at 37C. A general note: Release of lactate dehydrogenase indicates damage to the cell membrane.
The test system of another series is RKO cells. Nature of the series: Cell viability assay (MTT), RKO. The following applies: read-out: RKO EC50 (72 h).
The test system of series [2] is SJSA-1 cells. The series can be described thus: Cell viability assay (MTT), SJSA-1. The following applies: read-out: SJSA-1 EC50 (72 h).
Another series concerns Caspase 3. The series can be described thus: Caspase 3 detection assay in SJSA1 cells. The series is classed as cell-based. The following applies: 48 h, Caspase 3 activation over DMSO-treated cells.
For a further series, the system named is p21. The series can be described thus: P21 ELISA assay in SJSA1 cells. The class given is cell-based, Human. For orientation: ELISA stands for enzyme-linked immunosorbent assay.
A short description of series [3]: Circular dichroism (CD) analysis of alpha-helicity. The note with it: difference 50% TFE minus benign. The series is classed as physicochemical. In general terms: CD spectra are sensitive to the conformation of chiral molecules.

The structures appear in SMILES notation.

The EC50 is the concentration giving half of the maximal effect. In the case of `CC(=O)N[C@@H](CC(C)C)C(=O)N[C@H](C(=O)N[C@@H](Cc1ccccc1)C(=O)N[C@]1(C)CCCCCCC=CCCC[C@@](C)(C(=O)N[C@@H](CO)C(=O)N[C@H](C(=O)N[C@@H](CO)C(N)=O)C(C)C)NC(=O)[C@H](CC(C)C)NC(=O)[C@H](CCC(N)=O)NC(=O)[C@H](C)NC(=O)[C@H](Cc2c[nH]c3ccccc23)NC(=O)[C@H](Cc2ccc(O)cc2)NC(=O)[C@H](C)NC1=O)[C@@H](C)O` [compound 121], the “12.5 uM % Lysed cells (1 h LDH)” value in the series with SJSA-1 cells [1] is 0%. In addition, the EC50 with RKO cells was less than 5 µM.
Consider `CC[C@H](C)[C@H](NC(=O)[C@H](C)NC(=O)[C@H](C)NC(=O)[C@]1(C)CCCC=CCCCCCC[C@@](C)(NC(=O)[C@H](Cc2ccccc2)NC(=O)[C@@H](NC(=O)[C@H](CC(C)C)NC(C)=O)[C@@H](C)O)C(=O)N[C@@H](C)C(=O)N[C@@H](Cc2ccc(O)cc2)C(=O)N[C@@H](Cc2c[nH]c3ccccc23)C(=O)N[C@@H](C)C(=O)N[C@@H](CCC(N)=O)C(=O)N[C@@H](CC(C)C)C(=O)N1)C(=O)N[C@@H](C)C(N)=O` (single isomer, unassigned) [compound 65], for which the figures for the EC50 in the series with SJSA-1 cells [2] and in the series with RKO cells were less than 5 µM and 5 to 15 µM, respectively.
Regarding `CC(C)C[C@H](NC(=O)CN(C)C)C(=O)N[C@H](C(=O)N[C@@H](Cc1ccccc1)C(=O)N[C@]1(C)CCCCCCC=CCCC[C@@](C)(C(=O)N[C@@H](C)C(=O)N[C@@H](C)C(=O)N[C@@H](C)C(=O)N[C@@H](C)C(=O)N[C@@H](C)C(=O)N[C@H](C)C(N)=O)NC(=O)[C@H](CC(C)C)NC(=O)[C@H](CCC(N)=O)NC(=O)[C@H](C)NC(=O)[C@H](Cc2c[nH]c3ccccc23)NC(=O)[C@H](Cc2ccc(O)cc2)NC(=O)[C@H](C)NC1=O)[C@@H](C)O` (single isomer, unassigned) [compound 436], the concentration for a half-maximal effect (EC50) in the series on SJSA-1 cells [2] and in the series with RKO cells was less than 5 µM throughout.
Take `CCCC[C@H](NC(=O)[C@H](C)NC(=O)[C@H](C)NC(=O)[C@]1(C)CCCC=CCCCCCC[C@@](C)(NC(=O)[C@H](Cc2ccccc2)NC(=O)[C@@H](NC(=O)[C@H](CC(C)C)NC(C)=O)[C@@H](C)O)C(=O)N[C@@H](C)C(=O)N[C@@H](Cc2ccc(O)cc2)C(=O)N[C@@H](Cc2c[nH]c3ccccc23)C(=O)N[C@@H](C)C(=O)N[C@@H](CCC(N)=O)C(=O)N[C@@H](CC(C)C)C(=O)N1)C(=O)N[C@H](C)C(N)=O` (single isomer, unassigned) [compound 74]: in the series with SJSA-1 cells [2], the EC50 was less than 5 µM.
Same read-out and setting: next, `CCCC[C@H](NC(=O)[C@H](C)NC(=O)[C@H](CO)NC(=O)[C@]1(C)CCCC=CCCCCCC[C@@](C)(NC(=O)[C@H](Cc2ccccc2)NC(=O)[C@@H](NC(=O)[C@H](CC(C)C)NC(C)=O)[C@@H](C)O)C(=O)N[C@@H](CCC(=O)O)C(=O)N[C@@H](Cc2ccc(C(=O)O)cc2)C(=O)N[C@@H](Cc2c[nH]c3cc(Cl)ccc23)C(=O)N[C@@H](C)C(=O)N[C@@H](CCC(N)=O)C(=O)N[C@@H](CC2CCC2)C(=O)N1)C(=O)N[C@@H](C)C(N)=O` (single isomer, unassigned) [compound 333]: 15 to 30 µM.
Take `CC[C@H](C)[C@H](NC(=O)[C@H](C)NC(=O)[C@H](C)NC(=O)[C@]1(C)CCCC=CCCCCCC[C@@](C)(NC(=O)[C@H](Cc2ccccc2)NC(=O)[C@@H](NC(=O)[C@H](CC(C)C)NC(C)=O)[C@@H](C)O)C(=O)N[C@@H](C)C(=O)N[C@@H](Cc2ccc(O)cc2)C(=O)N[C@@H](Cc2c[nH]c3ccccc23)C(=O)N[C@@H](C)C(=O)N[C@@H](CCC(N)=O)C(=O)N[C@@H](CC(C)C)C(=O)N1)C(=O)N[C@H](C)C(N)=O` (single isomer, unassigned) [compound 70]: the concentration giving a half-maximal response (EC50) in the series on SJSA-1 cells [2] and in the series on RKO cells was less than 5 µM each time.
As for `CC[C@H](C)[C@H](NC(=O)[C@H](C)NC(=O)[C@H](C)NC(=O)[C@]1(C)CCC/C=C/CCCCCC[C@@](C)(NC(=O)[C@H](Cc2ccccc2)NC(=O)[C@@H](NC(=O)[C@H](CC(C)C)NC(C)=O)[C@@H](C)O)C(=O)N[C@@H](C)C(=O)N[C@@H](Cc2ccc(O)cc2)C(=O)N[C@@H](Cc2c[nH]c3ccccc23)C(=O)N[C@@H](C)C(=O)N[C@@H](CCC(N)=O)C(=O)N[C@@H](CC(C)C)C(=O)N1)C(=O)N[C@H](C)C(N)=O` [compound 71], the EC50 in the series with SJSA-1 cells [2] and with RKO cells was less than 5 µM in each case. Also, in the series with Caspase 3 (10 uM peptide), the “caspase 10 uM” value is 14.72.
For the molecule `CC(=O)N[C@@H](CC(C)C)C(=O)N[C@H](C(=O)N[C@@H](Cc1ccc(F)c(F)c1)C(=O)N[C@]1(C)CCCCCCC=CCCC[C@@](C)(C(=O)N[C@@H](CO)C(=O)N[C@@H](C)C(=O)N[C@@H](C)C(N)=O)NC(=O)[C@H](CC(C)C)NC(=O)[C@H](CCC(N)=O)NC(=O)[C@H](C)NC(=O)[C@H](Cc2c[nH]c3ccccc23)NC(=O)[C@H](Cc2ccc(O)cc2)NC(=O)[C@H](CCC(=O)O)NC1=O)[C@@H](C)O` (single isomer, unassigned) [compound 158], the EC50 with RKO cells is greater than 30 µM. In addition, in the series with Caspase 3 (3 uM peptide), the “caspase 3 uM” value amounted to 1.67.
For the molecule `CC(=O)N[C@@H](CC(C)C)C(=O)N[C@H](C(=O)N[C@@H](Cc1ccccc1)C(=O)N[C@]1(C)CCCCC#CC#CCCC[C@@](C)(C(=O)N[C@@H](C)C(=O)N[C@@H](C)C(=O)N[C@@H](C)C(=O)N[C@@H](C)C(=O)N[C@@H](C)C(=O)N[C@H](C)C(N)=O)NC(=O)[C@H](CC(C)C)NC(=O)[C@H](CCC(N)=O)NC(=O)[C@H](C)NC(=O)[C@H](Cc2c[nH]c3ccccc23)NC(=O)[C@H](Cc2ccc(O)cc2)NC(=O)[C@H](C)NC1=O)[C@@H](C)O` [compound 662], in the series with SJSA-1 cells [2], the EC50 was less than 5 µM.
The same measure, in the same setting: next, `CCCC[C@H](NC(=O)[C@H](C)NC(=O)[C@H](C)NC(=O)[C@]1(C)CCCC=CCCCCCC[C@@](C)(NC(=O)[C@H](Cc2ccccc2)NC(=O)[C@@H](NC(=O)[C@H](CC(C)C)NC(C)=O)[C@@H](C)O)C(=O)N[C@@H](C)C(=O)N[C@@H](Cc2ccc(O)cc2)C(=O)N[C@@H](Cc2c[nH]c3ccccc23)C(=O)N[C@@H](C)C(=O)N[C@@H](CCC(N)=O)C(=O)N[C@@H](CC(C)C)C(=O)N1)C(=O)N[C@@H](C)C(N)=O` (single isomer, unassigned) [compound 68]: less than 5 µM.
On to `CC[C@H](C)[C@H](NC(=O)[C@H](C)NC(=O)[C@H](C)NC(=O)[C@]1(C)CCCCCCC=CCCC[C@@](C)(NC(=O)[C@H](Cc2ccccc2)NC(=O)[C@@H](NC(=O)[C@H](CC(C)C)NC(C)=O)[C@@H](C)O)C(=O)N[C@@H](C)C(=O)N[C@@H](Cc2ccc(O)cc2)C(=O)N[C@@H](Cc2c[nH]c3ccccc23)C(=O)N[C@@H](C)C(=O)N[C@@H](CCC(N)=O)C(=O)N[C@@H](CC(C)C)C(=O)N1)C(=O)N[C@H](C)C(N)=O` [compound 234], for which the EC50 in the series on SJSA-1 cells [2] was less than 5 µM.
`CC(C)C[C@H](NC(=O)CN(C)C)C(=O)N[C@H](C(=O)N[C@@H](Cc1ccccc1)C(=O)N[C@]1(C)CCCCCC/C=C/CCC[C@@](C)(C(=O)N[C@@H](C)C(=O)N[C@@H](C)C(=O)N[C@@H](C)C(=O)N[C@@H](C)C(=O)N[C@@H](C)C(=O)N[C@H](C)C(N)=O)NC(=O)[C@H](CC(C)C)NC(=O)[C@H](CCC(N)=O)NC(=O)[C@H](C)NC(=O)[C@H](Cc2c[nH]c3ccccc23)NC(=O)[C@H](Cc2ccc(O)cc2)NC(=O)[C@H](C)NC1=O)[C@@H](C)O` [compound 437]: the half-maximal effective concentration (EC50) in the series with SJSA-1 cells [2] and in the series on RKO cells was less than 5 µM in each case.
`CCCC[C@H](NC(=O)[C@H](C)NC(=O)[C@H](C)NC(=O)[C@]1(C)CCC/C=C/CCCCCC[C@@](C)(NC(=O)[C@H](Cc2ccccc2)NC(=O)[C@@H](NC(=O)[C@H](CC(C)C)NC(C)=O)[C@@H](C)O)C(=O)N[C@@H](C)C(=O)N[C@@H](Cc2ccc(O)cc2)C(=O)N[C@@H](Cc2c[nH]c3ccccc23)C(=O)N[C@@H](C)C(=O)N[C@@H](CCC(N)=O)C(=O)N[C@@H](CC(C)C)C(=O)N1)C(=O)N[C@@H](C)C(N)=O` [compound 69]: the “p21 0.3 uM” value in the series with p21 (0.3 uM peptide) was 272. For the same molecule, in the series on p21 (1 uM peptide), the “p21 1 uM” value was 458.72. Also, in the series on p21 (3 uM peptide), the “p21 3 uM” value was determined as 1281.39. In addition, the “p21 10 uM” value with p21 (10 uM peptide) is 2138.88. Also, the “p21 30 uM” value with p21 (30 uM peptide) worked out at 1447.22. In addition, the “Molar Ellipticity TFE-Molar Ellipticity Benign” value in series [3] is −21407.1 deg cm2 dmol-1. Also, the half-maximal effective concentration (EC50) with SJSA-1 cells [2] and with RKO cells was less than 5 µM each time.
